Here are results for 1 compound from BindingDB's records for 35696861.

The chains behind the UniProt entries cited, without tags or fusion partners.
UniProt P14902, whole entry, looked up: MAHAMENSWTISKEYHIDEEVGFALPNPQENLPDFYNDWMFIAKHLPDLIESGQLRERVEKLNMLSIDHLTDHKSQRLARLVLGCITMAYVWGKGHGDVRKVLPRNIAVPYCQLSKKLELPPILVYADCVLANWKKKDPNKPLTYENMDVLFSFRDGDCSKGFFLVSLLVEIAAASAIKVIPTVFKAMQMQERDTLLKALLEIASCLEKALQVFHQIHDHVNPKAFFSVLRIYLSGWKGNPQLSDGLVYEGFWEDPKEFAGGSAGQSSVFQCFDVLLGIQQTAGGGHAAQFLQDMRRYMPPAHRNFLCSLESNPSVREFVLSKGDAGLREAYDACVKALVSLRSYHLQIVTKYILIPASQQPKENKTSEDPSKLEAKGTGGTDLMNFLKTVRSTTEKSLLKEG

This assay addresses Indoleamine 2,3-dioxygenase 1 (Homo sapiens, UniProt P14902).

As to `COP(C)(=O)NCCCNc1nonc1/C(=N/O)Nc1ccc(F)c(Br)c1` (stereo unspecified), the IC50 (commonly the concentration needed to halve the response being measured) turned out to be 94.5 µM.
